Reference: patent publication US8962608B2, “Cycloalkylnitrile pyrazole carboxamides as janus kinase inhibitors” (Merck Sharp & Dohme Corp., priority 2011, dated 2015)

Protein sequences, listed by entry. Tags and fused reporters are not part of them. Residues count along the entry.
UniProt P23458, 875-1153: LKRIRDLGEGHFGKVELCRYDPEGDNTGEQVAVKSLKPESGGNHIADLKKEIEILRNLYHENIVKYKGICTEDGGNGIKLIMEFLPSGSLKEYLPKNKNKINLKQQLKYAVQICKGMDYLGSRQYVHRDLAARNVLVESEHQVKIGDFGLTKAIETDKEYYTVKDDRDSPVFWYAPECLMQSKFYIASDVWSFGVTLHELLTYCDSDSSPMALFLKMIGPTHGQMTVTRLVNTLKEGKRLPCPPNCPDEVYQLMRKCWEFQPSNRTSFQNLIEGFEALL

molecular target: JAK1 (recombinant purified GST-tagged catalytic domain) (Homo sapiens (Human), UniProt P23458); assay: biochemical
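Further: biochemical assay with HTRF read-out.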

Row | Structure (SMILES) | IC50 [nM]
1 | CC1(C)CN([C@@H]2CC[C@H](n3cc(C(N)=O)c(Nc4ccc([C@H](O)C(F)(F)F)cc4)n3)[C@@H](C#N)C2)C1 (single isomer, unassigned) [Example 28-44, 1-[(1S,2S,4R or 1R,2R,4S)-2-cyano-4-(3,3-dimethylazetidin-1-yl)cyclohexyl]-3-({4-[(1S or 1R)-2,2,2-trifluoro-1-hydroxyethyl]phenyl}amino)-1H-pyrazole-4-carboxamide] | 0.06
2 | CC1(CN[C@H]2CCC(n3cc(C(N)=O)c(Nc4ccc(Cl)cc4)n3)[C@@H](C#N)C2)COC1 (single isomer, unassigned) [Example 28-217, 3-[(4-chlorophenyl)amino]-1-[(1S,2S,4S or 1R,2R,4R)-2-cyano-4-{[(3-methyloxetan-3-yl)methyl]amino}cyclohexyl]-1H-pyrazole-4-carboxamide] | 2
3 | CC1(C)CN([C@H]2CC[C@H](n3cc(C(N)=O)c(Nc4ccc(Cl)cc4)n3)[C@@H](C#N)C2)C1 (single isomer, unassigned) [Example 28-144, 3-[(4-chlorophenyl)amino]-1-[(1S,2S,4S or 1R,2R,4R)-2-cyano-4-(3,3-dimethylazetidin-1-yl)cyclohexyl]-1H-pyrazole-4-carboxamide] | 1
4 | N#C[C@H]1CCCC[C@@H]1n1cc(C(N)=O)c(Nc2cnc3cc(Cl)ccc3c2)n1 (single isomer, unassigned) [Example 17-61, 3-[(7-chloroquinolin-3-yl)amino]-1-[(1S,2S or 1R,2R)-2-cyanocyclohexyl]-1H-pyrazole-4-carboxamide] | 4
5 | CC(C)(C)OC(=O)NC1CC[C@@H](C#N)C(n2cc(C(N)=O)c(Nc3ccc(F)cc3)n2)C1 (mixture of isomers) [Example 11-4, tert-butyl [(3R,4S and 3S,4R)-3-{4-carbamoyl-3-[(4-fluorophenyl)amino]-1H-pyrazol-1-yl}-4-cyanocyclohexyl]carbamate] | 0.8
6 | CC1(N[C@H]2CCC(n3cc(C(N)=O)c(Nc4ccc(Cl)cc4)n3)[C@@H](C#N)C2)COC1 (single isomer, unassigned) [Example 28-207, 3-[(4-chlorophenyl)amino]-1-{(1S,2S,4S or 1R,2R,4R)-2-cyano-4-[(3-methyloxetan-3-yl)amino]cyclohexyl}-1H-pyrazole-4-carboxamide] | 1
7 | N#C[C@H]1CC(N2CCC[C@H]2CF)CC[C@@H]1n1cc(C(N)=O)c(Nc2ccc(S(=O)(=O)C(F)(F)F)cc2)n1 (single isomer, unassigned) [Example 28-157, 1-{(1S,2S or 1R,2R)-2-cyano-4-[(2S)-2-(fluoromethyl)pyrrolidin-1-yl]cyclohexyl}-3-({4-[(trifluoro-methyl)sulfonyl]phenyl}amino)-1H-pyrazole-4-carboxamide] | 1
8 | N#C[C@H]1CCCC[C@@H]1n1cc(C(N)=O)c(Nc2ccc(S(=O)(=O)Nc3ccc4cccnc4c3)cc2)n1 (single isomer, unassigned) [Example 17-94, 1-[(1R,2R or 1S,2S)-2-cyanocyclohexyl]-3-{[4-(quinolin-7-ylsulfamoyl)phenyl]amino}-1H-pyrazole-4-carboxamide] | 5
9 | N#C[C@@H]1CCCC[C@H]1n1cc(C(N)=O)c(Nc2ccc(S(=O)(=O)C(F)F)cc2)n1 (single isomer, unassigned) [Example 43-6, 1-[(1S,2S or 1R,2R)-2-cyanocyclohexyl]-3-({4-[(difluoromethyl)sulfonyl]phenyl}amino)-1H-pyrazole-4-carboxamide] | 0.3
10 | CN(C)[C@@H]1CC[C@@H](n2cc(C(N)=O)c(Nc3ccc(C(F)(F)F)nc3)n2)[C@H](C#N)C1 (single isomer, unassigned) [Example 28-18, 1-[(1R,2R,4R or 1S,2S,4S)-2-cyano-4-(dimethylamino)cyclohexyl]-3-{[6-(trifluoromethyl)pyridin-3-yl]amino}-1H-pyrazole-4-carboxamide] | 30
11 | N#C[C@H]1C[C@@H](N2CCC2)CC[C@@H]1n1cc(C(N)=O)c(Nc2ccc([C@H](O)C(F)(F)F)cc2)n1 (single isomer, unassigned) [Example 28-47, 1-[(1S,2S,4S or 1R,2R,4R)-4-azetidin-1-yl-2-cyanocyclohexyl]-3-({4-[(1S or 1R)-2,2,2-trifluoro-1-hydroxyethyl]phenyl}amino)-1H-pyrazole-4-carboxamide] | 0.3
12 | N#C[C@H]1C[C@H](N2CCC2)CC[C@@H]1n1cc(C(N)=O)c(Nc2ccc(Cl)c(F)c2)n1 (single isomer, unassigned) [Example 28-37, 1-[(1S,2S,4R or 1R,2R,4S)-4-azetidin-1-yl-2-cyanocyclohexyl]-3-[(4-chloro-3-fluorophenyl)amino]-1H-pyrazole-4-carboxamide] | 2
13 | N#C[C@H]1C[C@H](O)CCC1n1cc(C(N)=O)c(Nc2ccc(F)cc2)n1 (mixture of isomers) [Example 4, 1-[(1S,2S,4R and 1R,2R,4S)-2-Cyano-4-hydroxycyclohexyl]-3-[(4-fluorophenyl)amino]-1H-pyrazole-4-carboxamide] | 5
14 | CC1(N[C@H]2CCC(n3cc(C(N)=O)c(Nc4ccc(Cl)cc4)n3)[C@@H](C#N)C2)CCOCC1 (single isomer, unassigned) [Example 28-235, 3-[(4-chlorophenyl)amino]-1-{(1S,2S,4S or 1R,2R,4R)-2-cyano-4-[(4-methyltetrahydro-2H-pyran-4-yl)amino]cyclohexyl}-1H-pyrazole-4-carboxamide] | 0.85
15 | Cc1cc(Nc2nn([C@H]3CCCC[C@@H]3C#N)cc2C(N)=O)cnc1C#N (single isomer, unassigned) [Example 17-77, 1-[(1R,2R or 1S,2S)-2-cyanocyclohexyl]-3-[(6-cyano-5-methylpyridin-3-yl)amino]-1H-pyrazole-4-carboxamide] | 4
16 | N#C[C@H]1C[C@H](N2CCC2)CC[C@@H]1n1cc(C(N)=O)c(Nc2ccc([C@H](O)C(F)(F)F)cc2)n1 (single isomer, unassigned) [Example 28-65, 1-[(1S,2S,4R or 1R,2R,4S)-4-azetidin-1-yl-2-cyanocyclohexyl]-3-({4-[(1S or 1R)-2,2,2-trifluoro-1-hydroxyethyl]phenyl}amino)-1H-pyrazole-4-carboxamide] | 0.3
17 | N#Cc1cncc(Nc2nn([C@H]3CCCC[C@@H]3C#N)cc2C(N)=O)c1 (single isomer, unassigned) [Example 17-74, 1-[(1R,2R or 1S,2S)-2-cyanocyclohexyl]-3-[(5-cyanopyridin-3-yl)amino]-1H-pyrazole-4-carboxamide] | 12
18 | N#C[C@H]1CCCC[C@@H]1n1cc(C(N)=O)c(Nc2ccc([C@@H](O)C(F)F)nc2)n1 (single isomer, unassigned) [Example 17-38, 1-[(1S,2S or 1R,2R)-2-cyanocyclohexyl]-3-({6-[(1R or 1S)-2,2-difluoro-1-hydroxyethyl]pyridin-3-yl}amino)-1H-pyrazole-4-carboxamide] | 1
19 | N#C[C@H]1C[C@H](O)CC[C@@H]1n1cc(C(N)=O)c(Nc2ccc(C(F)(F)F)c(F)c2)n1 (single isomer, unassigned) [Example 25-23, 1-[(1S,2S,4R or 1R,2R,4S)-2-cyano-4-hydroxycyclohexyl]-3-{[3-fluoro-4-(trifluoromethyl)phenyl]amino}-1H-pyrazole-4-carboxamide] | 2
20 | C[C@H](N[C@H]1CC[C@H](n2cc(C(N)=O)c(Nc3ccc(C(F)(F)F)nc3)n2)[C@@H](C#N)C1)C1CC1 (single isomer, unassigned) [Example 28-8, 1-[(1S,2S,4S or 1R,2R,4R)-2-cyano-4-{[(1S)-1-cyclopropylethyl]amino}cyclo-hexyl]-3-{[6-(trifluoromethyl)pyridin-3-yl]amino}-1H-pyrazole-4-carboxamide] | 5
21 | N#C[C@H]1CCCC[C@@H]1n1cc(C(N)=O)c(Nc2ccc(S(=O)(=O)N3CCOCC3)cc2)n1 (single isomer, unassigned) [Example 17-99, 1-[(1R,2R or 1S,2S)-2-cyanocyclohexyl]-3-{[4-(morpholin-4-ylsulfonyl)phenyl]amino}-1H-pyrazole-4-carboxamide] | 0.4
22 | CN(C)[C@H]1CC[C@@H](n2cc(C(N)=O)c(Nc3ccc(C(F)(F)F)nc3)n2)[C@H](C#N)C1 (single isomer, unassigned) [Example 28-27, 1-[(1R,2R,4S or 1S,2S,4R)-2-cyano-4-(dimethylamino)cyclohexyl]-3-{[6-(trifluoromethyl)pyridin-3-yl]amino}-1H-pyrazole-4-carboxamide] | 50
23 | CN(C)[C@H]1CC[C@H](n2cc(C(N)=O)c(Nc3ccc(C(F)(F)F)cc3)n2)[C@@H](C#N)C1 (single isomer, unassigned) [Example 28-188, 1-[(1S,2S,4S or 1R,2R,4R)-2-cyano-4-(dimethylamino)cyclohexyl]-3-{[4-(trifluoromethyl)phenyl]amino}-1H-pyrazole-4-carboxamide] | 0.3
24 | N#C[C@H]1C[C@@H](N2CCC2)CC[C@@H]1n1cc(C(N)=O)c(Nc2ccc(S(=O)(=O)C(F)(F)F)cc2)n1 (single isomer, unassigned) [Example 28-168, 1-[(1S,2S,4S or 1R,2R,4R)-4-azetidin-1-yl-2-cyano-cyclohexyl]-3-({4-[(trifluoro-methyl)sulfonyl]phenyl}amino)-1H-pyrazole-4-carboxamide] | 0.15
25 | N#C[C@H]1CCCCC1n1cc(C(N)=O)c(Nc2ccc(S(=O)(=O)C(F)F)cc2)n1 (mixture of isomers) [Example 17-9, 1-[(1S,2S and 1R,2R)-2-cyanocyclohexyl]-3-({4-[(difluoromethyl)sulfonyl]phenyl}amino)-1H-pyrazole-4-carboxamide] | 0.5
26 | N#C[C@H]1C[C@@H](NCC2CC2)CC[C@@H]1n1cc(C(N)=O)c(Nc2ccc(S(=O)(=O)C(F)(F)F)cc2)n1 (single isomer, unassigned) [Example 28-172, 1-{(1S,2S,4S or 1R,2R,4R)-2-cyano-4-[(cyclopropylmethyl)amino]cyclo-hexyl}-3-({4-[(trifluoromethyl)sulfonyl]phen-yl}amino)-1H-pyrazolc-4-carboxamide] | 0.2
27 | N#C[C@H]1CCCC[C@@H]1n1cc(C(N)=O)c(Nc2ccc(C=O)cc2)n1 (single isomer, unassigned) [Example 17-25, 1-[(1S,2S or 1R,2R)-2-cyanocyclohexyl]-3-[(4-formylphenyl)amino]-1H-pyrazole-4-carboxamide] | 0.53
